Tests used:
[1] = Pharmacokinetic profiling in mouse (i.v., s.c.); settings: Mouse C57bl/6, i.v., 10 nmol/kg
Description: Selected test peptides (n=8) were profiled for pharmacokinetic (PK) properties in the mouse after single intravenous (i.v.) or subcutaneous (s.c.) dose. A subset (n=4) meeting the acceptance criteria was subsequently profiled in the dog (single i.v. dose) and non-human primate (single i.v. and s.c. dose). […] Low-binding plasticware containers were used during preparation and sample handling to avoid non-specific binding.
After dosing, PK samples were collected from the dorsal metatarsal vein. Blood of each sample was transferred into plastic micro centrifuge tubes containing EDTA-K2, inverted several times for proper mixing of contents and then placed on wet ice. The blood samples were centrifuged at 4° C. to obtain plasma and stored at −75° C. prior to analysis.
Samples analysis: Samples were analyzed by LC-MS/MS. Calibration standards were injected at the beginning and end of each batch and the determined concentration for each prepared standard was used to construct a calibration curve. Plasma and dose aliquot sample concentrations were determined from the plasma calibration curve.
Data analysis: Plasma concentration data was analyzed by non-compartmental analysis (NCA) using Phoenix Winnonlin v. 8.3.3.33. […] Subcutaneous bioavailability was calculated as the ratio AUC(s.c.)0-inf/AUC(i.v.)0-inf. […]

The chains behind the UniProt entries cited, without tags or fusion partners. Residues count along the entry.
UniProt P43220, 24-463: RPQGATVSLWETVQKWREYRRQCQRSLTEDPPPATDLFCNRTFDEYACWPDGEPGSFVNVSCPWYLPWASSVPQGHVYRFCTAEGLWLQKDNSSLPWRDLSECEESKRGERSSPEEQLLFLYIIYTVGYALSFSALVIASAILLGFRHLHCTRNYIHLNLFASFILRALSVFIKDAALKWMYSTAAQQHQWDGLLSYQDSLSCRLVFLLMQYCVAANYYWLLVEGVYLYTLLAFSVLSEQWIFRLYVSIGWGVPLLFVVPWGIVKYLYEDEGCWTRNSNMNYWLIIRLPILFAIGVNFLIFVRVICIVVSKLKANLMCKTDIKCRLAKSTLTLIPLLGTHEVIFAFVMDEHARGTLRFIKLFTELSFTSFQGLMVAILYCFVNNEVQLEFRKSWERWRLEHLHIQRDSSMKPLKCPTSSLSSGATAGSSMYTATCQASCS

[2] = biological target: T1, human GLP-1 receptor (hGLP-1R) (Homo sapiens, UniProt P43220); test: cAMP production (HTRF) in CHO cells expressing human GLP-1 receptor; assay type: cell-based; settings: Table 6; % GLP-1R activity relative to GLP-1 / % GlucR activity relative to glucagon
T1 construct: expressed in transfected cells; host or cells: CHO
Method: Cells were re-suspended in assay buffer at a batch-dependent optimized concentration (typically hGLP-1R cells at 1×10^5 cells/mL, hGCGR cells at 2×10^5 cells/mL).
Cells were added to the assay plate using a multidrop dispenser and incubated at room temperature for 30 minutes before measuring the cAMP level using a cAMP dynamic 2 homogeneous time resolved Fluorescence (HTRF) kit (Cisbio Bioassays #62AM4PEJ) following the two-step protocol as per manufacturer's recommendations. In brief, anti-cAMP cryptate (donor fluorophore) and cAMP-d2 (acceptor fluorophore) were made up separately by diluting each 1 in 20 in conjugate and lysis buffer provided in the kit. Anti-cAMP cryptate was added to all wells of the assay plate, followed by cAMP-d2 added to all wells except non-specific binding (NSB) wells (to which conjugate and lysis buffer was added).
Data was transformed to % Delta F as described in the manufacturer's guidelines and analyzed by 4-parameter logistic fit to determine EC50 values.

Substance: H-Aib-Q-G-T-F-T-S-D-V-S-K-αMePhe-L-D-T-K-R-A-R-D-F-V-Q-W-L-L-E-Aib-G-acid [Peptide 195]
- Half-life i.v. administration [1]: 11 h
- % Relative Potency Ratio [2]: 2.2

— patent US12630600B2 (MEDIMMUNE LIMITED, priority 2022, dated 2026)
